The source of these data is ChEMBL document CHEMBL2218924, “A broad activity screen in support of a chemogenomic map for kinase signalling research and drug discovery” (Biochem J, 2013).

The chains behind the UniProt entries cited, without tags or fusion partners. Where a name states a change or a piece, a line headed by the entry shows the natural chain unless it says otherwise.
UniProt P06493, whole entry, looked up: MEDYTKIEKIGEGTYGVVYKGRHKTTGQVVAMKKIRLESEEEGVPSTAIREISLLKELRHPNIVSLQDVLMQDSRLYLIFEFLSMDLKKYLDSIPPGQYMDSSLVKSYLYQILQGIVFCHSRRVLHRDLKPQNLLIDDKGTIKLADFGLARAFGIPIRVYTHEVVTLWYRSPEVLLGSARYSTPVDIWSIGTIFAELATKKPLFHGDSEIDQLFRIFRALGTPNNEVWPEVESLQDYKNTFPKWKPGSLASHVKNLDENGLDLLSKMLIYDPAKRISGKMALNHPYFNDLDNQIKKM
UniProt P67870, whole entry, looked up: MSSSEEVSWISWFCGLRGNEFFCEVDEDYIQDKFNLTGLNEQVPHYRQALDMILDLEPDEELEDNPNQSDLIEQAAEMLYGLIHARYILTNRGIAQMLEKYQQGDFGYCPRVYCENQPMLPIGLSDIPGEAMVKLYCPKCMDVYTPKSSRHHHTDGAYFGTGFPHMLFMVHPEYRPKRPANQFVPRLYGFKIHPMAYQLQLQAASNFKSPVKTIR
UniProt P68400, whole entry, looked up: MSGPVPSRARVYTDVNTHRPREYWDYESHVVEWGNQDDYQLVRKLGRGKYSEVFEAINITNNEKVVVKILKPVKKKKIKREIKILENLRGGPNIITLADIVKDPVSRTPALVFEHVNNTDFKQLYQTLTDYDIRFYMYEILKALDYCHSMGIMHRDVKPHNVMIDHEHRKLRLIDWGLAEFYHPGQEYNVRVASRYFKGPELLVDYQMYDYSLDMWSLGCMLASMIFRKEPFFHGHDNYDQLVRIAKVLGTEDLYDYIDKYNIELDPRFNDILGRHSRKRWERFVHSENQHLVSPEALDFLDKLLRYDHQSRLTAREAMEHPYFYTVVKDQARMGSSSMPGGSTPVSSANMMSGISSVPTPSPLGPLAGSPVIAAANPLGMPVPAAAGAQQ
UniProt P19784, whole entry, looked up: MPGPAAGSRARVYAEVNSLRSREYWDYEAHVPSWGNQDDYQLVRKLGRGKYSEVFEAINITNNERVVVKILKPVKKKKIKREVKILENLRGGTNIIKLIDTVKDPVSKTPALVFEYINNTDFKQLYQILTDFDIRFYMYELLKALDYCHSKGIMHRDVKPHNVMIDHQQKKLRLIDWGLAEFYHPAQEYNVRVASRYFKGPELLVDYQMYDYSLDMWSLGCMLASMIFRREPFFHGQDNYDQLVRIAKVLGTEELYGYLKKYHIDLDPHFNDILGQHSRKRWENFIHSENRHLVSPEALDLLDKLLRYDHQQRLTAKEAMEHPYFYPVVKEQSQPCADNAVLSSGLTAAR
UniProt P78362, whole entry, looked up: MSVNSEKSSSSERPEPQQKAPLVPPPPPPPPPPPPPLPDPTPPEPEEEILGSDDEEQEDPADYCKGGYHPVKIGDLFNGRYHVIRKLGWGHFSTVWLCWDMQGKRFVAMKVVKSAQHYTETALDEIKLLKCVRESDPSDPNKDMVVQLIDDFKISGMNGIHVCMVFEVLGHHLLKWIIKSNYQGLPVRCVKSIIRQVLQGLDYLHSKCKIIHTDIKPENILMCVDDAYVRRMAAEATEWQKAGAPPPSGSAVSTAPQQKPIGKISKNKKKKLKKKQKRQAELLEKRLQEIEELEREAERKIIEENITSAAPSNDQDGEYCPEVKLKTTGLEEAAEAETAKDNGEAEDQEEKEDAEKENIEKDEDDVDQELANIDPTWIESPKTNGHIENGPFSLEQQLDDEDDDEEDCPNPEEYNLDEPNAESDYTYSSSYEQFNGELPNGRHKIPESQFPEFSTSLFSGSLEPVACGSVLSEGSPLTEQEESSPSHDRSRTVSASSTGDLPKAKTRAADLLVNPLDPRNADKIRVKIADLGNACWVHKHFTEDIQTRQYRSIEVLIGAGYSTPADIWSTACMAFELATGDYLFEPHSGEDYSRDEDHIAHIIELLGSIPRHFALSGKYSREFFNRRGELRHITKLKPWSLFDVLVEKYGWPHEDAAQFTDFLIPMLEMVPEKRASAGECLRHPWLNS
UniProt O43318: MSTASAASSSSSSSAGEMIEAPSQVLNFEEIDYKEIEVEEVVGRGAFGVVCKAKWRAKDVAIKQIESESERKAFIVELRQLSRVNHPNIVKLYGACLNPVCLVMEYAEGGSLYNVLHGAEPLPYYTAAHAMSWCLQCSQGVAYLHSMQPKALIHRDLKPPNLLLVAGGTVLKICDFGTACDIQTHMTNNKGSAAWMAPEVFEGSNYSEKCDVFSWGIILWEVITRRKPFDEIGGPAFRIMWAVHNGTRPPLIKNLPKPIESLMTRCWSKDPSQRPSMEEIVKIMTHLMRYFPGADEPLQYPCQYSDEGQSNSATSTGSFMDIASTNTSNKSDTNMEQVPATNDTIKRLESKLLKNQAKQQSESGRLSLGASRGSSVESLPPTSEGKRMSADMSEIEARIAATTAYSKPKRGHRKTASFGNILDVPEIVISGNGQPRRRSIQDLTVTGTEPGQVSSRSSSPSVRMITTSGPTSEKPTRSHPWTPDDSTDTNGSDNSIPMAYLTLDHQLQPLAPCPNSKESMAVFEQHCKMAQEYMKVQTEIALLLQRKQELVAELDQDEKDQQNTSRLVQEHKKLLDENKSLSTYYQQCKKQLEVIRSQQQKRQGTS
UniProt P36897: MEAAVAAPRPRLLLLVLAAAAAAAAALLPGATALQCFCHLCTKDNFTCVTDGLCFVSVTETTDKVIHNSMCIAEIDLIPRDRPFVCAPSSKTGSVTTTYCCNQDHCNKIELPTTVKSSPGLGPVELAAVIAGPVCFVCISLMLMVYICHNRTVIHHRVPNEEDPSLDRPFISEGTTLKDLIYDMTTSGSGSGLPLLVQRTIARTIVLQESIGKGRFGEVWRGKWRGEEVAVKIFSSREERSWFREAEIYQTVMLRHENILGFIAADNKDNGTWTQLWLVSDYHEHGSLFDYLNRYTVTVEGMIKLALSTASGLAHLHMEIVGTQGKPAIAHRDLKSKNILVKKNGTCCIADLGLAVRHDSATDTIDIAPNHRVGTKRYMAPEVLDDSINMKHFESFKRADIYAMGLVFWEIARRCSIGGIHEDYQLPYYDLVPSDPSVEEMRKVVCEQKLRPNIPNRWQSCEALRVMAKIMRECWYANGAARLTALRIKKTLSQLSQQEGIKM
UniProt Q8N4C8: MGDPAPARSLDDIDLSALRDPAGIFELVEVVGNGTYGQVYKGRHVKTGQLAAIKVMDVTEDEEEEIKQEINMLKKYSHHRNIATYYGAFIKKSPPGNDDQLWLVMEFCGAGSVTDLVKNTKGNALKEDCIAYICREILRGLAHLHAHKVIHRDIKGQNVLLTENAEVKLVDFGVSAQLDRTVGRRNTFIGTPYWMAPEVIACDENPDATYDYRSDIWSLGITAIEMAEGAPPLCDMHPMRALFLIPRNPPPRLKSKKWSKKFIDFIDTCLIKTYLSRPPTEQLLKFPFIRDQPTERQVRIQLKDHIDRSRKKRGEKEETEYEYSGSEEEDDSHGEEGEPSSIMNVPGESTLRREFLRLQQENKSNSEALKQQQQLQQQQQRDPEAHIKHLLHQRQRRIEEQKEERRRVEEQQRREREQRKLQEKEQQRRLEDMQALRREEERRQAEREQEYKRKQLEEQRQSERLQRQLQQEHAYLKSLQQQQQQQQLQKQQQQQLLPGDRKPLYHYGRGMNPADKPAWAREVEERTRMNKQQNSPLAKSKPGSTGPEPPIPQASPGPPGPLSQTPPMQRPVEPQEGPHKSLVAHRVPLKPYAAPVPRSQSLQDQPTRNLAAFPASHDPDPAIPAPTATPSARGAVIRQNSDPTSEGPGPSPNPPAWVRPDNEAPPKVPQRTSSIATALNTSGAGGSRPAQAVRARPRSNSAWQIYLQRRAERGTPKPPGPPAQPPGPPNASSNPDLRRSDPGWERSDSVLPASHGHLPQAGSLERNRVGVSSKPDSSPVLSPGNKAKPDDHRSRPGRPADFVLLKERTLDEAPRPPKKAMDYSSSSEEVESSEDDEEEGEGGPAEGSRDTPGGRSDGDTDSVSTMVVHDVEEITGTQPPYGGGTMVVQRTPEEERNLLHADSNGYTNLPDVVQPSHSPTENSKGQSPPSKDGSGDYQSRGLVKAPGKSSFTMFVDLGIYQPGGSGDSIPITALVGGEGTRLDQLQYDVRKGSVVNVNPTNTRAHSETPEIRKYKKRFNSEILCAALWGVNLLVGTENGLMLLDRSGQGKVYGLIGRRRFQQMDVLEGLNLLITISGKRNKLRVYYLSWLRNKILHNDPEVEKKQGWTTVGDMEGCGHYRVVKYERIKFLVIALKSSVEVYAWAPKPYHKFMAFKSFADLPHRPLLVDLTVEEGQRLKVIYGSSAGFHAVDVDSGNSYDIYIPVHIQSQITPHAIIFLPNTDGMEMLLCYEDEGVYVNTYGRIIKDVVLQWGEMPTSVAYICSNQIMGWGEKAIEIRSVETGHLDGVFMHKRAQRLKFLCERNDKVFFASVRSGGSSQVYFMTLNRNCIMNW
UniProt Q9Y5S2: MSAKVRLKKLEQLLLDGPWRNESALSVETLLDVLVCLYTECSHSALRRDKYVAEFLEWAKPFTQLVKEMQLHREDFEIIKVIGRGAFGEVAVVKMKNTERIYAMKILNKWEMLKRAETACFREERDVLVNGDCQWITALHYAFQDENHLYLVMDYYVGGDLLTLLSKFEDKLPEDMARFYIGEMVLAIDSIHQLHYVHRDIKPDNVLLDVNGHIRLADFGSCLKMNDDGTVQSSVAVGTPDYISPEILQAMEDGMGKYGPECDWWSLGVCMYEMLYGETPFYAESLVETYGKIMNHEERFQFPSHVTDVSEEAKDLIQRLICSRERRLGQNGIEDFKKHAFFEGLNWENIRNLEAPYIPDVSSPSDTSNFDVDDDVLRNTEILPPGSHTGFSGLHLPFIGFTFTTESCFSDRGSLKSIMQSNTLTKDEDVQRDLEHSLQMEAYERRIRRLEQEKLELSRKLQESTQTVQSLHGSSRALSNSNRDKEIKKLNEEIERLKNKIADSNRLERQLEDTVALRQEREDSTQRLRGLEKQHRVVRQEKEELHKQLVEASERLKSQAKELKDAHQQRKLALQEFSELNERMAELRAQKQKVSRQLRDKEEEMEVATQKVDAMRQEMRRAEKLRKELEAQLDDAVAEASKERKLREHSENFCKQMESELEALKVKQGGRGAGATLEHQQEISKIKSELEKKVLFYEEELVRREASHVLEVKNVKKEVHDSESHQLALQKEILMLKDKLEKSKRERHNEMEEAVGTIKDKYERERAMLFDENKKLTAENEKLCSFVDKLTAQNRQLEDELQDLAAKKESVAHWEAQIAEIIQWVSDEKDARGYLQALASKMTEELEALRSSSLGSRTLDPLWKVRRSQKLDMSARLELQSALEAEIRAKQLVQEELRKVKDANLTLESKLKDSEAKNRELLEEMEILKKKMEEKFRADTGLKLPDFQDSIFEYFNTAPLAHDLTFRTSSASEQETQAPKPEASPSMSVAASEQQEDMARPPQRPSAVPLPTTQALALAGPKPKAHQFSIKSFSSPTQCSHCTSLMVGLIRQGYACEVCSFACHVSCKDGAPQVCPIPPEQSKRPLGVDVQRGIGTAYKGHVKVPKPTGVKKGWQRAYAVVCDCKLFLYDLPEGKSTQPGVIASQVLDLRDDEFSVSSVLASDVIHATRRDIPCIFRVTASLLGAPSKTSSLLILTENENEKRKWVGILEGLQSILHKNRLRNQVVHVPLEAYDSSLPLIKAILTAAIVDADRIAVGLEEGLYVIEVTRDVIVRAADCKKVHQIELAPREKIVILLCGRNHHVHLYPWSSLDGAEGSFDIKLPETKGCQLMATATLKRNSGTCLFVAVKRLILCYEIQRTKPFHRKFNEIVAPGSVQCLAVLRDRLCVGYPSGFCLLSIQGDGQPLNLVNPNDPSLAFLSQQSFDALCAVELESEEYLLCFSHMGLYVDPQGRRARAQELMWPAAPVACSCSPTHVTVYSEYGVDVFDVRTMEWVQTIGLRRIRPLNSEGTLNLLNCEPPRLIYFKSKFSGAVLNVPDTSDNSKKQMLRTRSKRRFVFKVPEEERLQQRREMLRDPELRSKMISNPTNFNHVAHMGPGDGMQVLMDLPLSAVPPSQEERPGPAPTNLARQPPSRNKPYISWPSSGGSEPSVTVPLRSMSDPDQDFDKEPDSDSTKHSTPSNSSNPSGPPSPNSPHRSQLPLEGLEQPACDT
UniProt P51955: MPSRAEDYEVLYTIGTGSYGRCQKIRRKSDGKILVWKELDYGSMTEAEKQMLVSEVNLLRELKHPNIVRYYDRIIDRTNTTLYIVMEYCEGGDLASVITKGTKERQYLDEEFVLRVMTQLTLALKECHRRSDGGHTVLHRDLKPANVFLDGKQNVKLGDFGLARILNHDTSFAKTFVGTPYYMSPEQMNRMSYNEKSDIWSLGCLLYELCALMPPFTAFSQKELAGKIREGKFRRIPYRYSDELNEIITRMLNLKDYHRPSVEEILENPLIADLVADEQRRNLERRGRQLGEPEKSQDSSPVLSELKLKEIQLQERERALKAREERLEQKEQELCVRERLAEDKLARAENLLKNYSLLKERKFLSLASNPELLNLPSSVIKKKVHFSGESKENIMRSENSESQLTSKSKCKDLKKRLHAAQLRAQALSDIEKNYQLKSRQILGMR

For experiment [1], the target named is Epidermal growth factor receptor (Homo sapiens) (UniProt P00533). Conditions: at 1 µM.
The target is the same in experiment [2]. Conditions: at 10 µM.
The target of experiment [3] is T1, Eukaryotic elongation factor 2 kinase (Homo sapiens) (UniProt O00418).
T1 sequence (whole entry): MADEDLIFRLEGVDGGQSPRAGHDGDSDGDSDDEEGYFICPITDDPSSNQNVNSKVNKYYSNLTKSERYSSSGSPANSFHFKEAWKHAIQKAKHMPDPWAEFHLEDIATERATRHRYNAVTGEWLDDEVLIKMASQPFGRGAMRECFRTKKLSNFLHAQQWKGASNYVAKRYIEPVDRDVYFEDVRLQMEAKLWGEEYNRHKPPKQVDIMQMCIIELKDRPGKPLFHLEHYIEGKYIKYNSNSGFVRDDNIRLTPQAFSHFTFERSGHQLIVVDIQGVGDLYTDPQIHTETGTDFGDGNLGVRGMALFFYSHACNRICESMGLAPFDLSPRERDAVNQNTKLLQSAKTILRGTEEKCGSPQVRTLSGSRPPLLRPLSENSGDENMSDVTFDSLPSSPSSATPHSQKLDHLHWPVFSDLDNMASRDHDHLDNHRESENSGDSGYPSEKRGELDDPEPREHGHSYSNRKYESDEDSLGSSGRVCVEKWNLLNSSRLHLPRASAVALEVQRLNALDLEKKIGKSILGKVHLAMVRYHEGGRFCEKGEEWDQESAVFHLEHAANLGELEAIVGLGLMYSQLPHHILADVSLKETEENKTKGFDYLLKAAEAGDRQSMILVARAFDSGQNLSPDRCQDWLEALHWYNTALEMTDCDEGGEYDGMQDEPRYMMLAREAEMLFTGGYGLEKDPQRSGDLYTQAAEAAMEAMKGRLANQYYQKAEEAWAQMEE
The following applies: at 1 µM.

The target in experiment [4] is T1, Eukaryotic elongation factor 2 kinase (Homo sapiens). Conditions: at 10 µM.
The target in experiment [5] is Cyclin-dependent kinase 1/cyclin B1 (Homo sapiens) (UniProt P06493+P14635). Conditions: at 1 µM.
Experiment [6] has as its target T2, Casein kinase II (Homo sapiens) (UniProt P67870+P68400+P19784). The following applies: at 1 µM.
Experiment [7] deals with T2, Casein kinase II (Homo sapiens). Conditions: at 10 µM.
Experiment [8] has as its target Ephrin type-A receptor 4 (Homo sapiens) (UniProt P54764). Conditions: at 10 µM.
Experiment [9] has as its target Ephrin type-A receptor 7 (Homo sapiens) (UniProt Q15375). Conditions: at 1 µM.
The target in experiment [10] is Fibroblast growth factor receptor 4 (Homo sapiens) (UniProt P22455). Conditions: at 10 µM.
Experiment [11] concerns the target Homeodomain-interacting protein kinase 2 (Homo sapiens) (UniProt Q9H2X6). Conditions: at 1 µM.
In experiment [12] the target is T3, cGMP-dependent protein kinase 1 (Homo sapiens) (UniProt Q13976).
T3 sequence (whole entry): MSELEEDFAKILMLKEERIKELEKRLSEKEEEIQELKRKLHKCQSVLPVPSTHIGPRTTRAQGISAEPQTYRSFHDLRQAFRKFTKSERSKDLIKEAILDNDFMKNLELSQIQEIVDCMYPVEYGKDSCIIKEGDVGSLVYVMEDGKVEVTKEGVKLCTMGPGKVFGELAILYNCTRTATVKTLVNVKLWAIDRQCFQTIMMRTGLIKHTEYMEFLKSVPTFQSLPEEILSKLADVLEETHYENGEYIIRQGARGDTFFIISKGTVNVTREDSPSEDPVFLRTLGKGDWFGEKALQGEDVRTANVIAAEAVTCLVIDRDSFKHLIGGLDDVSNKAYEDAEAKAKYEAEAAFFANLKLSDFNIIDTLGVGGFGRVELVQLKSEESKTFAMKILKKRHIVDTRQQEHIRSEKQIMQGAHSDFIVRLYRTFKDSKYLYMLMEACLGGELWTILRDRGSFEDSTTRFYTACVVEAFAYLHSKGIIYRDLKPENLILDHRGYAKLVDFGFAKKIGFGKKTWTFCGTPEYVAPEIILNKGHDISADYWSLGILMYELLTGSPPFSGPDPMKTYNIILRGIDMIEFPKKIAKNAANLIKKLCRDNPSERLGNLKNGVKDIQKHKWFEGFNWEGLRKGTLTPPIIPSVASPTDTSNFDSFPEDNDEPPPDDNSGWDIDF
The following applies: at 1 µM.

Experiment [13] has as its target SRSF protein kinase 2 (Homo sapiens) (UniProt P78362). Conditions: at 1 µM.
Experiment [14] addresses Serine/threonine-protein kinase PLK2 (Homo sapiens) (UniProt Q9NYY3). Conditions: at 10 µM.
Experiment [15] deals with Mitogen-activated protein kinase kinase kinase 7 (Homo sapiens) (UniProt O43318). Conditions: at 1 µM.
The target in experiment [16] is Serine/threonine-protein kinase TAO2 (Homo sapiens) (UniProt Q9UL54). Conditions: at 1 µM.
The target in experiment [17] is TGF-beta receptor type-1 (Homo sapiens) (UniProt P36897). Conditions: at 1 µM.
For experiment [18], the target named is Insulin receptor (Homo sapiens) (UniProt P06213). The following applies: at 1 µM.
The target is the same in experiment [19]. Conditions: at 10 µM.
For experiment [20], the target named is LIM domain kinase 1 (Homo sapiens) (UniProt P53667). The following applies: at 1 µM.
Experiment [21] addresses Misshapen-like kinase 1 (Homo sapiens) (UniProt Q8N4C8). Conditions: at 1 µM.
In experiment [22] the target is Serine/threonine-protein kinase MRCK beta (Homo sapiens) (UniProt Q9Y5S2). The following applies: at 1 µM.
The target in experiment [23] is Serine/threonine-protein kinase Nek2 (Homo sapiens) (UniProt P51955). Conditions: at 1 µM.
Experiment [24] deals with Tyrosine-protein kinase Tec (Homo sapiens) (UniProt P42680). The following applies: at 1 µM.
Experiment [25] deals with Serine/threonine-protein kinase NLK (Homo sapiens) (UniProt Q9UBE8). Conditions: at 1 µM.
The target in experiment [26] is PAS domain-containing serine/threonine-protein kinase (Homo sapiens) (UniProt Q96RG2). The following applies: at 1 µM.

The structures appear in SMILES notation. For some assays here: This list holds what a sample rich in strong results left over. No cut-off for these calls is given here. The list shows a part of the results, in another mix than the full data.

As for `O=C1Nc2ccccc2/C1=C1/Nc2ccccc2/C1=N\OCCC(O)CO` (stereo not given), the residual activity in [1] stood at 110%; in [2], 79%.
Turning to `Cc1ccc(S(=O)(=O)/C=C/C#N)cc1`, the residual activity in experiment [1] was 107%; in experiment [2], 94%; in [3] it was inactive: 102%; in experiment [4], 101%.
In the case of `O=C(O)c1ccc2c3c1cccc3c(=O)n1c3ccccc3nc21`, the residual activity in experiment [1] is 108%; in [2] it was 107%; in experiment [3], inactive: 110%; in experiment [4], 89%.
On to `O=c1c2ccccc2[nH]c(=S)n1CCN1CCC(=C(c2ccc(F)cc2)c2ccc(F)cc2)CC1`, for which the residual activity in experiment [1] was 119%; in experiment [2] it was 113%; in [3], inactive: 97%.
Consider `Cc1nc(-c2ccccc2)c(-c2ccncc2)o1`, for which the residual activity is 107% in experiment [1], 96% in [2], inactive: 117% in [3] and 86% in [4].
In the case of `O=Nc1c(-c2c(O)[nH]c3ccccc23)[nH]c2ccccc12`, the residual activity in experiment [1] is 15%.
`O=C1NC(=O)C(c2cn(CCCn3ccnc3)c3ccccc23)=C1Nc1ccccc1`: the residual activity in [5] is 96%; in experiment [6], 90%; in experiment [7] it was 98%; in [1], 117%; in [2], 85%; in experiment [8], 95%. Besides, the residual activity in [9] was determined as 94%; in experiment [10] it was 90%; in [11], 91%; in experiment [12] it was 97%; in [13], 95%; in experiment [14], 97%. The residual activity in [15] is 86%; in experiment [16], 94%; in experiment [17], 89%; in experiment [18], 91%; in [19], 88%; in [20], 84%. The residual activity in experiment [21] is 85%; in [22], 87%; in experiment [23] it was 83%; in experiment [24], 93%; in experiment [3], inactive: 94%; in experiment [4] it was 93%. The residual activity in [25] came out at 92%; in experiment [26], 99%.
As for `COc1cccc(-c2cc(=O)c3ccccc3o2)c1N`, the residual activity in experiment [1] is 107%; in experiment [2], 114%; in experiment [3], inactive: 101%; in experiment [4] it was 98%.
As for `O=C1Nc2ccc(Br)cc2/C1=C\c1cc2c([nH]1)CCCC2`, the residual activity in experiment [1] was 103%; in [2], 119%.
